# AlphaSeq binding of Ab-91 heavy chain variants to a spike HR2 peptide

Target: peptide PDVDLGDISGINAS, taken from heptad repeat 2 (HR2) of SARS-CoV-2 spike.

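The parent was found by panning a naive human phage display library on the peptide. In library AAYL51, one, two or three CDR residues were substituted; doubles and triples were drawn at random. The assay is AlphaSeq: two haploid yeast populations carry antibody and antigen on their surface. Pairs that bind mate more often; barcode pairs of the diploids are counted by sequencing. Each replicate has its own calibration line, from reference interactions of the BCL2 family. Each pool was mated in three replicate cultures.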

Ab-91 is the parent antibody, in scFv form: VL, then the linker GGGGSGGGGSGGGGS, then VH. The light chain is unchanged in all variants.
VL: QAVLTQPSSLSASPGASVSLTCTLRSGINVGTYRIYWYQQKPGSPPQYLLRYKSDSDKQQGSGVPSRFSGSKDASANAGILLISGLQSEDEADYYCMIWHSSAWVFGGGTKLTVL
VH: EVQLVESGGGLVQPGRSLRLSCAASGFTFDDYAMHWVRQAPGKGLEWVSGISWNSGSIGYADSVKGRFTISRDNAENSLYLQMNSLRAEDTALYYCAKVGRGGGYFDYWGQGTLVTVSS

Changes read parent residue, position, new residue, counted from the first residue of the VH shown. Affinities are written as log10 Kd with Kd in nM; a lower number is a better binder. The mean shown is taken over the replicates in which the pair was detected. "no signal" marks a missing value. The strain was present, yet no cells mated with the target were sequenced in any replicate, which points to weak or no binding.

| changes | mean log10 Kd (nM) | seen in | empty controls |
|---|---|---|---|
| S52C V64Y F106W | no signal | 0 of 3 | 3 of 9 |
| M34G S55W V64Q | no signal | 0 of 3 | 3 of 9 |
| F29C I51C S52V | no signal | 0 of 3 | 0 of 9 |
| F29W V64C G102L | 4.44 | 2 of 3 | 5 of 9 |
| G103Y Y108W | no signal | 0 of 3 | 0 of 9 |
| T28Q Y60L G100F | 4.39 | 1 of 3 | 0 of 9 |
| S63Y G103C Y105H | 1.21 | 3 of 3 | 0 of 9 |
| D31Q N54V S55K | no signal | 0 of 3 | 1 of 9 |
| F29S D31G V99G | no signal | 0 of 3 | 0 of 9 |
| S55L G56D A61R | no signal | 0 of 3 | 0 of 9 |
| T28E S57F R101W | 2.79 | 3 of 3 | 6 of 9 |
| G59V Y105K F106M | no signal | 0 of 3 | 1 of 9 |
| H35N I51E V99G | no signal | 0 of 3 | 0 of 9 |
| F29M A61E G102W | 1.35 | 3 of 3 | 0 of 9 |
| F27L A33M W53R | 5.90 | 2 of 3 | 5 of 9 |
| G56W G103C D107I | no signal | 0 of 3 | 1 of 9 |
| T28Y I51M G102C | 3.57 | 1 of 3 | 1 of 9 |
| T28W G59P V99K | 5.08 | 2 of 3 | 3 of 9 |
| N54R V64W Y108K | 4.91 | 2 of 3 | 6 of 9 |
| N54E K65E G102E | 3.39 | 1 of 3 | 0 of 9 |
| D30S S55L Y108E | 2.03 | 3 of 3 | 0 of 9 |
| S52A G100A D107V | 4.49 | 1 of 3 | 2 of 9 |
| D30L G50Y W53L | 3.95 | 1 of 3 | 3 of 9 |
| S57P V64A K65Q | 4.11 | 2 of 3 | 3 of 9 |
| G50N Y60Q G102T | no signal | 0 of 3 | 0 of 9 |
| S52L A61I | 4.55 | 2 of 3 | 5 of 9 |
| M34Q G50I D107N | 4.38 | 1 of 3 | 1 of 9 |
| T28D Y105Q | no signal | 0 of 3 | 0 of 9 |
| Y32H Y60E A61Q | 4.47 | 2 of 3 | 3 of 9 |
| T28P R101S F106P | 3.99 | 1 of 3 | 5 of 9 |
| G50P K65A F106Y | 4.41 | 1 of 3 | 1 of 9 |
| N54D K65L G104T | 5.08 | 1 of 3 | 3 of 9 |
| G26R S57I S63H | 5.71 | 1 of 3 | 4 of 9 |
| Y32N G100P F106C | 3.66 | 1 of 3 | 2 of 9 |

Second part, the sequence after the result:

| mean log10 Kd (nM) | seen in | empty controls | changes |
|---|---|---|---|
| 0.90 | 3 of 3 | 4 of 9 | F29H K65F |
| no signal | 0 of 3 | 2 of 9 | M34T S55K S57R |
| no signal | 0 of 3 | 0 of 9 | T28N V99L F106I |
| 3.12 | 2 of 3 | 0 of 9 | S55I G103L |
| no signal | 0 of 3 | 0 of 9 | F29D F106R Y108K |
| 2.61 | 3 of 3 | 0 of 9 | D62M G103V Y108A |
| 3.31 | 1 of 3 | 0 of 9 | D30I G50K G102A |
| 3.25 | 2 of 3 | 3 of 9 | W53V N54L I58A |
| 4.53 | 1 of 3 | 1 of 9 | S52K G59D Y105D |
| no signal | 0 of 3 | 0 of 9 | G50F K65F |
| no signal | 0 of 3 | 0 of 9 | F27D N54P |
| 4.71 | 1 of 3 | 2 of 9 | G26D H35Q A61Q |
| no signal | 0 of 3 | 2 of 9 | G26M Y60M G104C |
| 4.65 | 1 of 3 | 4 of 9 | N54R G102N |
| 1.28 | 3 of 3 | 5 of 9 | S55K S57D G104I |
| 1.36 | 3 of 3 | 5 of 9 | G100H G104A F106I |
| 5.31 | 3 of 3 | 4 of 9 | G26H K65Q Y105C |
| 4.68 | 3 of 3 | 2 of 9 | F27H A61K F106D |
| 4.19 | 1 of 3 | 2 of 9 | G26E A33N |
| 4.91 | 1 of 3 | 1 of 9 | T28R N54V G59W |
| 5.27 | 3 of 3 | 6 of 9 | S55I R101E |
| 4.35 | 3 of 3 | 5 of 9 | Y32S M34I V99W |
| 1.05 | 3 of 3 | 0 of 9 | F29H G103T G104D |
| 3.71 | 1 of 3 | 4 of 9 | G59V Y105S |
| no signal | 0 of 3 | 1 of 9 | W53S D62A Y105E |
| no signal | 0 of 3 | 0 of 9 | F29A D62R R101N |
| 4.33 | 2 of 3 | 3 of 9 | S55L V64R G103T |
| 5.17 | 1 of 3 | 1 of 9 | S55Y K65I G104S |
| no signal | 0 of 3 | 1 of 9 | D30Y H35M F106K |
| 4.11 | 1 of 3 | 2 of 9 | A33I G102L F106R |
| no signal | 0 of 3 | 0 of 9 | M34D I51E N54T |
| 5.33 | 3 of 3 | 5 of 9 | F29H Y60L K65H |
| 5.17 | 2 of 3 | 3 of 9 | G26Y Y32R |
| 5.23 | 2 of 3 | 5 of 9 | T28R G50T D107N |
| no signal | 0 of 3 | 2 of 9 | D31T V99F F106L |

6 of these entries, quoted again:

| changes | mean log10 Kd (nM) | seen in | empty controls |
|---|---|---|---|
| G103Y Y108W | no signal | 0 of 3 | 0 of 9 |
| N54R V64W Y108K | 4.91 | 2 of 3 | 6 of 9 |
| F27L A33M W53R | 5.90 | 2 of 3 | 5 of 9 |
| F29H K65F | 0.90 | 3 of 3 | 4 of 9 |
| G50N Y60Q G102T | no signal | 0 of 3 | 0 of 9 |
| F27D N54P | no signal | 0 of 3 | 0 of 9 |

Empty control strains, which show no peptide, gave a signal in 21% of pairings with library AAYL51; the median was 4.54 and 95% of these signals were weaker than 3.26. No background was subtracted. Also given: how often the same scFv was detected with the empty control strains. For reference, the parent read 1.86 as the reference entry and 0.88 as a member of this library.

Data: MIT Lincoln Laboratory AlphaSeq set, Engelhart et al. 2022, doi:10.1038/s41597-022-01779-4, as distributed in FLAb.